Tested on: DOX-induced cardiotoxicity
Assay: DOX treatment in vivo (cardiotoxicity, 42 days)
Details: T1 (16 days) and T2 (42 days)

COc1cccc2c1C(=O)c1c(O)c3c(c(O)c1C2=O)C[C@@](O)(C(=O)CO)C[C@@H]3O[C@H]1C[C@H](N)[C@H](O)[C@H](C)O1 [DOX, Doxorubicin]
negatively impaired: ejection fraction (EF %) | fractional shortening (FS %) | isovolumetric relaxation time (IVRT)

— US20240058417A1, “AMELIORATION AND TREATMENT OF INFARCTION DAMAGE” (priority 2021, published 2024)
